Here are results for one compound from publication PMC9306553 (Angewandte Chemie (International Ed. in English), 2022).

Experiment in all cases: cell-based
For assay [1], the target named is T1, CCR9 (Homo sapiens, UniProt P51686).
T1 sequence (P51686 1-357 isoform P51686-2): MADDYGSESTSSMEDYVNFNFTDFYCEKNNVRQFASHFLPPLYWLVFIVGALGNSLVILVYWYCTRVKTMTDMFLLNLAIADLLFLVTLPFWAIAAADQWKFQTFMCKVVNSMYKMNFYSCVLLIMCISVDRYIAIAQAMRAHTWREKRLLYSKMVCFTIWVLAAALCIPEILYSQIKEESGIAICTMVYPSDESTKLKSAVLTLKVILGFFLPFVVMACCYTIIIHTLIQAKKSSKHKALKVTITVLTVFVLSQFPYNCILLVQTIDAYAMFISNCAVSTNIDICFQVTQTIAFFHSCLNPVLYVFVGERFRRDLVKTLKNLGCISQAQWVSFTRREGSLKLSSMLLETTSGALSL
The following applies: HEK293T cells, stimulated with CCL25 31.6 nM.

The target in assay [2] is T2, CCR9 (Homo sapiens, UniProt P51686).
T2 sequence (P51686 1-369): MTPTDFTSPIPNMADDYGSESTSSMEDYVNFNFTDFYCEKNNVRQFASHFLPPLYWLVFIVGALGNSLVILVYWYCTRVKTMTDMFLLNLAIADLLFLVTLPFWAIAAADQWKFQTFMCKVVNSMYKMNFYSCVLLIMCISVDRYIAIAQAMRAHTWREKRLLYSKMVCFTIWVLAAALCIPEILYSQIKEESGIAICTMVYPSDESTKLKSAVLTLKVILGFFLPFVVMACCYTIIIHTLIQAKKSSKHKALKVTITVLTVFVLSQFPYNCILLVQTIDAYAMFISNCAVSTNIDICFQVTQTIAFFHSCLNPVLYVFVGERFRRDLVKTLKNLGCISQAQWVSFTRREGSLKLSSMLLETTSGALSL
The following applies: IC50 β-arrestin2 recruitment, HEK293T cells, stimulated with CCL25 31.6 nM.

The target of assay [3] is T1, CCR9. The following applies: tracer 3a 120 nM, live HEK293T cells expressing CCR9_Nluc.

A word on the IC50: it is the concentration at which inhibition is half-maximal. A lower IC50 goes with greater potency in that assay. For orientation: Ki means a measure of affinity in units of concentration, obtained from inhibition or displacement. Read a high Ki as lower affinity. For `CC(C)(C)c1ccc(S(=O)(=O)Nc2ccc(Cl)cc2-c2cncnc2N)cc1` [compound 12], the half-inhibitory concentration (IC50) against CCR9 [1] (IC50 Gαo activation) was 1.92 nM; at CCR9 [1] (pIC50 Gαo activation, mean±SEM) it was 1.91 nM; against CCR9 [2], 1.93 nM. For the same compound, the Ki on CCR9 [3] (Ki NanoBRET (in cells)) was 1.91 nM; at CCR9 [3] (pKi NanoBRET (in cells), mean±SEM) it was 1.38 nM.
